Values of other authors as cited in article PMC3890056.

Sequences of proteins named here, by UniProt entry; tags and fusion partners are left off. Residues count along the entry.
UniProt P19235, 25-250: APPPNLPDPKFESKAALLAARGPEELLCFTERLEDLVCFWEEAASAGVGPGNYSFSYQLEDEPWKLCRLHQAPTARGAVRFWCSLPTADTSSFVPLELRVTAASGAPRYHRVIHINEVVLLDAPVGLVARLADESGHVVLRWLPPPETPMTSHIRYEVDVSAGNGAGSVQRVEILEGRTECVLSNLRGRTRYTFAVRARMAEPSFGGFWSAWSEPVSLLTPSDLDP

Target: erythropoietin (Homo sapiens) (UniProt P01588)
Assay: 125I-rHuEpo binding

pKd: 10.00
Substance: erythropoietin receptor (from UniProt P19235)

pKd: −log10 of the molar value.
